Reference: PubChem BioAssay AID1865 (National Center for Advancing Translational Sciences (NCATS), 2009)
Only a part is listed here, and it is no random draw. Some salts and complexes are drawn in separate pieces, as the source files them; their charges need not balance. Active and inactive are the calls of the source. Calls follow the shape of the dose curve; as a rule, active = well fitted activation curve with a large enough effect; inconclusive = small, poorly fitted or top-dose-only effect; inactive = flat fitted curve, though single readings scatter.

Experiment: Quantitative High-Throughput Screen for Regulators of Epigenetic Control; also: % of control where 0% means no effect; nearly all actives have a fitted effect of over 60% in size
Settings: murine LDR cells, GFP reporter derepression, 30 h; at 53.9 µM (top of the series)
Excerpt: NIH Molecular Libraries Screening Centers Network [MLPCN] NIH Chemical Genomics Center [NCGC] MLSCN Grant: 1 X01 MH079860-01 Assay Provider: Elisabeth D. Martinez, University of Texas SW Medical Center NCGC Assay Overview: The Locus Derepression (LDR) assay detects the derepression or induction of a GFP reporter that is stably integrated in a genomic region of murine cells that is presumably silenced. Transcription of the GFP reporter is controlled by a CMV promoter, which normally is constitutively active. However, this cell line, termed LDR, was selected for lack of constitutive production of GFP. GFP production can be induced by incubating the cells with histone deacetylase or DNA methyltransferase inhibitors (Martinez et al., 2006). Compounds that derepress or induce this reporter locus are identified by enumerating GFP positive cells using a laser-scanning microplate cytometer (Auld et al., 2006). This assay was screened against the MLSMR earlier (AID 597; (Johnson et al., 2008) and has been rescreened here against the expanded collection.
NCGC Assay Protocol Summary: Three hundred LDR cells in 5 uL per well were dispensed into black, clear-bottom 1536-well plates. Twenty-three nL compound was transferred to the assay plate and cells were incubated 30 hours at 37 C. Medium was removed, cells were washed two times with PBS, and GFP-positive cells were enumerated as fluorescent objects between the sizes of 20 to 120 um width and depth using an Acumen Explorer. References Auld, DS, Johnson, RL, Zhang, YQ, Veith, H, Jadhav, A, Yasgar, A, Simeonov, A, Zheng, W, Martinez, ED, Westwick, JK, Austin, CP, Inglese, J (2006). Fluorescent protein-based cellular assays analyzed by laser-scanning microplate cytometry in 1536-well plate format. Methods Enzymol 414: 566-89. Johnson, RL, Huang, W, Jadhav, A, Austin, CP, Inglese, J, Martinez, ED (2008). A quantitative high-throughput screen identifies potential epigenetic modulators of gene expression. Anal Biochem 375: 237-48. Martinez, ED, Dull, AB, Beutler, JA, Hager, GL (2006). High-content fluorescence-based screening for epigenetic modulators. Methods Enzymol 414: 21-36.
For `CCOc1ccc(C)cc1CN(CCCl)CCCl`, the GFP activation was inactive: -0.281%. With `O=C(NCC1(N2CCOCC2)CCCCC1)c1ccc(Cl)cc1` the GFP activation was inactive: -1.61%. For `COc1ccc(NC2CCN(CCc3ccccc3)CC2)c(OC)c1`, the GFP activation was inactive: -0.273%. In the case of `COc1ccccc1C(=O)NCC1(N2CCOCC2)CCCCC1`, the GFP activation is reported as inactive: 1.61%. In the case of `Cc1ccc(OCC(C)C)c(CN(CCCl)CCCl)c1`, the GFP activation is reported as inactive: 0%. In the case of `COc1ccc(C(=O)NCC2(N3CCCCC3)CCCCC2)c(OC)c1OC`, the GFP activation is reported as inactive: 3.61%. In the case of `O=C(NCC1(N2CCOCC2)CCCCC1)c1cc2ccccc2o1`, the GFP activation is reported as inactive: -4.21%. In the case of `CCOC(=O)N1CCC(Nc2ccc(OC)cc2)CC1`, the GFP activation is reported as inactive: -0.581%. With `N#CC1(Nc2ccccc2)CCN(Cc2ccccc2)CC1` the GFP activation was inactive: 0.99%. In the case of `O=C(OC1CN2CCC1CC2)C1c2ccccc2Oc2ccccc21` (stereo unspecified), the GFP activation is reported as inactive: 1.01%. For `CN(C)c1cccc(C(=O)NCC2(N3CCCCC3)CCCCC2)c1`, the GFP activation was inactive: -0.501%. With `COc1ccc(CN(CCCl)CCCl)cc1Cl` the GFP activation was inactive: -0.0611%. For `CC(C)c1ccc(NC2CCN(C(=O)OC(C)(C)C)CC2)cc1`, the GFP activation was inactive: -0.292%. In the case of `COc1ccc2c(c1O)-c1c(O)c(OC)cc3c1[C@H](C2)[N+](C)(C)CC3.O=[N+]([O-])c1cc([N+](=O)[O-])c([O-])c([N+](=O)[O-])c1[O-]`, the GFP activation is reported as inactive: 0.433%. In the case of `O=C(OC1CN2CCC1CC2)c1ccc([N+](=O)[O-])cc1` (stereo unspecified), the GFP activation is reported as inactive: -1.33%. For `O=C(NCC1(N2CCOCC2)CCCCC1)c1ccccc1Br`, the GFP activation was inactive: -2.39%. With `CCCCOc1ccccc1C(=O)NCC1(N2CCOCC2)CCCCC1` the GFP activation was inactive: -1.61%. For `CCOc1ccc(C(=O)NCC2(N3CCOCC3)CCCCC2)cc1`, the GFP activation was inactive: -1.61%. For `O=C(NCC1(N2CCCCC2)CCCCC1)c1cccc([N+](=O)[O-])c1`, the GFP activation was inactive: -0.0598%. With `N#CC1(Nc2ccccc2)CCN(CCc2ccccc2)CC1` the GFP activation was inactive: -1.43%. For `CCCOc1cccc(C(=O)NCC2(N3CCOCC3)CCCCC2)c1`, the GFP activation was inactive: -1.61%. For `O=[N+]([O-])c1cc([N+](=O)[O-])c(NCC2CCS(=O)(=O)C2)c([N+](=O)[O-])c1` (stereo unspecified), the GFP activation was inactive: -1.37%. In the case of `CN1CCN(CCOC(=O)C(O)(c2ccccc2)c2ccccc2)CC1`, the GFP activation is reported as inactive: 0.0534%. In the case of `COc1ccc(NC2CCN(C(=O)OC(C)(C)C)CC2)cc1`, the GFP activation is reported as inactive: -5.26%. With `O=C(NCC1(N2CCOCC2)CCCCC1)c1cc(=O)[nH]c2ccccc12` the GFP activation was inactive: -8.96%. For `O=C(NCC1(N2CCOCC2)CCCCC1)c1ccc([N+](=O)[O-])cc1`, the GFP activation was inactive: -2.39%.
